From patent publication US20050013753A1, “Heat-transfer systems” (priority 2003, published 2005)

Legend:
[1] = cited from earlier work
[2] = Resistance to oxidation and degradation at elevated temperature; settings: 100 to 150 degrees Celsius; versus propylene glycol or ethylene glycol

1,3-propanediol
Solubility in water ([1]; DuPont MSDS): Solubility in Water: Miscible with water
Solubility in water ([1]; Shell datasheet): Complete
Resistance to oxidation and degradation over time [2]: resists oxidation and degradation at these temperatures over time significantly better than either propylene glycol or ethylene glycol

Where two headings read alike, the source gives them in different places.
